The record followed here is PubChem BioAssay AID924 (National Center for Advancing Translational Sciences (NCATS), 2007).

This is a selection; strong and weak results do not stand in their true shares. Results filed as inconclusive are left out. Activity calls are given as the source filed them. Calls follow the shape of the dose curve; as a rule, active = well fitted cell-killing curve with a large enough effect; inconclusive = small, poorly fitted or top-dose-only effect; inactive = no such curve, though single readings can be large or run the other way.

The assay in a line: qHTS Screen for Compounds that Selectively Target Cancer Cells with p53 Mutations: Cytotoxicity of p53ts Cells at the Permissive Temperature.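 Also: 0% = DMSO and -100% = full killing by reference compound; nearly all actives have a fitted effect of over 55% in size.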 The following applies: H1299-p53A138V at 32C, ATP luminescence viability, 24 h; at 46.1 µM (top of the series) unless noted. For orientation: In qHTS, concentration-response curves come from the screen itself.
Turning to `CN1CCC[C@H](OC(=O)C(c2ccccc2)c2ccccc2)C1`, the activity change, negative = cytotoxicity was inactive: -4.18% [at 9.22 µM]. On to `C[C@@H](O)COc1ccc([As](=O)(O)O)cc1N`, for which the activity change, negative = cytotoxicity was inactive: -4.84% [at 9.22 µM]. With `O=P(Nc1nccs1)(c1ccccc1)c1ccccc1`, the activity change, negative = cytotoxicity was inactive: 3.17%. As to `c1nnnn1CCn1cnnn1`, the activity change, negative = cytotoxicity is inactive: -2.54%. As to `O=C(OC1CN2CCC1CC2)c1cccc(Cl)c1` (centres undefined), the activity change, negative = cytotoxicity was inactive: 2.01%. Take `Cc1cc([N+](=O)[O-])cc([N+](=O)[O-])c1O`: the activity change, negative = cytotoxicity was inactive: 4.69% [at 1.84 µM]. For the compound `[N-]=[N+]=Nc1ccc([As](=O)(O)O)cc1`, the activity change, negative = cytotoxicity is inactive: -2.4% [at 9.22 µM]. Under `COC(=O)c1cc2c(s1)N=C(c1ccccc1)N(C)P2(=O)N1CCOCC1` (centres undefined) stands inactive: 8.63%; under `O=P1(Nc2nc3ccc(Cl)cc3s2)COc2ccccc2O1` (centres undefined), inactive: -12.9%. In the case of `NCC[C@@H](N)CSP(=O)(O)O`, the activity change, negative = cytotoxicity was inactive: 0.851% [at 9.22 µM].

For `CN1CCCC(OC(=O)C(c2ccccc2)c2ccccc2)C1` (centres undefined), the activity change, negative = cytotoxicity is inactive: 1.75%. As for `O=[N+]([O-])c1ccc(C[As](=O)(O)O)cc1`, the activity change, negative = cytotoxicity was inactive: 0.0946% [at 9.22 µM]. As for `[N-]=[N+]=NCC(O)CN=[N+]=[N-]` (centres undefined), the activity change, negative = cytotoxicity is inactive: 1.22% [at 9.22 µM]. On to `C(Cc1nn[nH]n1)c1nn[nH]n1`, for which the activity change, negative = cytotoxicity was inactive: -1.85% [at 9.22 µM].

For `CN(C(=O)Cc1ccccc1)[C@@H]1CC[C@@]2(CCCO2)C[C@H]1N1CCCC1`, the activity change, negative = cytotoxicity was inactive: 2.99%. Consider `O=C(CO)Nc1ccc([As](=O)(O)O)cc1`, for which the activity change, negative = cytotoxicity is inactive: 3.2% [at 9.22 µM]. As for `CCC(C)N(CC(C)C)C(=S)SC(NC(C)=O)C(Cl)(Cl)Cl` (centres undefined), the activity change, negative = cytotoxicity is inactive: -9.94%. Turning to `COP1(=S)c2c(C)nn(CCC#N)c2N=C(c2ccc(F)cc2)N1C` (centres undefined), the activity change, negative = cytotoxicity was inactive: -1.62%. `O=C(COc1ccccc1)OC1CN2CCC1CC2` (centres undefined): the activity change, negative = cytotoxicity is inactive: 2.21%. `O=C(O)[C@@H](O)c1ccc([As](=O)(O)O)cc1`: the activity change, negative = cytotoxicity was inactive: 4.96% [at 9.22 µM].

As for `CN(N=O)C(=N)N[N+](=O)[O-]`, the activity change, negative = cytotoxicity is inactive: -2.62% [at 1.84 µM]. Under `O=[As]c1ccc(S(=O)(=O)NCCO)cc1` (centres undefined) stands inactive: 3.8% [at 9.22 µM]; under `ClCCSc1nnc(-c2cccnc2)o1`, inactive: -17.6%; under `[N-]=[N+]=NCC(N)=O`, inactive: 3.67% [at 9.22 µM]. With `Cc1c2c(nc3ccccc13)SC(C(Cl)Cl)C2` (centres undefined), the activity change, negative = cytotoxicity was inactive: 23.1%. Under `O=C(OC1CN2CCC1CC2)C12CC3CC(CC(C3)C1)C2` (centres undefined) stands inactive: -6.36%; under `NC(=O)Nc1cc([As](=O)(O)O)cc(I)c1O`, inactive: 3.15% [at 9.22 µM]; under `NS(=O)(=O)Cc1ccc([As](=O)(O)O)cc1`, inactive: -1.69% [at 9.22 µM]. Under `O=C(CC(=O)c1ccccc1)O[C@H]1CN2CCC1CC2` stands inactive: 2.24% [at 9.22 µM]; under `CN(C(=O)Cc1ccc(Cl)c(Cl)c1)[C@@H]1CC[C@@]2(CCCO2)C[C@H]1N1CCCC1`, inactive: -17.3%. In the case of `CCOP1(=S)c2c(C)nn(CCC#N)c2N=C(c2ccc(F)cc2)N1C` (centres undefined), the activity change, negative = cytotoxicity was inactive: -6.29%.

Consider `O=P(Nc1nccs1)(c1ccccc1)c1nc2ccccc2s1` (centres undefined), for which the activity change, negative = cytotoxicity was inactive: -1.93%. Under `O=[As](O)(O)c1ccc([As](=O)(O)O)cc1` stands inactive: -2.98% [at 9.22 µM]. Under `O=P1(Nc2ncccn2)COc2ccccc2OC1` stands inactive: 2.6%; under `O=P1(Nc2ccc(Br)cn2)COc2ccccc2OC1`, inactive: -1.54%.

Take `Cc1nn(-c2ccccc2)c2c1P(=O)(N1CCOCC1)N(C)C(c1ccccc1)=N2` (centres undefined): the activity change, negative = cytotoxicity was inactive: 1.64%.

On to `O=P1(Nc2ccccn2)COc2ccccc2OC1`, for which the activity change, negative = cytotoxicity is inactive: -3.34%.

Regarding `CN(CCCl)Cc1cc(Cl)c(NC2=NCCN2)c(Cl)c1`, the activity change, negative = cytotoxicity was inactive: -9.01%. Consider `Clc1n[nH]nc1-c1nn[nH][15n]1`, for which the activity change, negative = cytotoxicity was inactive: 13%.
